Shown are actives, neighbours in structure and some others; about 1.3% of the full set was active somewhere.
Rango complex inh – qHTS Assay for Inhibitors of Rango (Ran-regulated importin-beta cargo) - Importin beta complex formation. Rango CFP/YFP FRET sensor + importin beta, 45 min. Potency, µM (series often up to 92.2 µM), inactives show top-dose inhibition of complex formation. hit rate 0.031% among 340,000. AID 540263, 2011;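 further: potency means the concentration at half of the fitted maximal effect; 0% = DMSO wells and 100% = buffer wells lacking importin beta; nearly all actives have a fitted effect of over 15% in size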
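Inhibition scored from the CFP 486 nm/YFP 530 nm FRET ratio 45 min after adding 0.125 microM importin beta to 50 nM Rango biosensor preincubated 5 min with compound (room temperature, PBS with DTT, Tween-20, BSA). No-importin wells as positive control.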
hERG WT inh – qHTS for Inhibitors of KCHN2 3.1: Wildtype qHTS; AID 720551, 2013; hit rate 0.37% among 340,000; activity change, % at 1.84 µM; Voltage-gated inwardly rectifying potassium channel KCNH2 (Homo sapiens), Q12809; U2OS, BacMam KCNH2, thallium flux FluxOr; hits give low values;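 active means maximum activity change below -70%; inconclusive means maximum activity change between -70% and -50%; inactive means maximum activity change above -50%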; further: on the % scale 0 is the no-effect control and ±100 the full control effect
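U2OS cells transduced with wild-type KCNH2 virus are loaded with FluxOr dye for 45 min, and thallium flux is measured in kinetic reads before and after stimulation buffer. Rate constants are normalized to DMSO controls.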
KCNH2 3.1 inh – qHTS for Inhibitors of KCHN2 3.1: Mutant qHTS. U2OS KCNH2 3.1, thallium flux FluxOr; hits give low values. activity change, % (tested at about 1.8 µM). hit rate 0.95% among 340,000. AID 720553, 2013;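 active means maximum activity change below -70%; inconclusive means maximum activity change from -70% to -50%; inactive means maximum activity change above -50%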;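 further: thallium influx rate constant from kinetic fluorescence after stimulation buffer; on the % scale 0 is the no-effect control and ±100 the full control effect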
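We transduce U2OS cells with the mutant 3.1 virus, culture them overnight, load FluxOr with Red40 quencher for 45 min, then add stimulation buffer and read kinetically for 2 min to derive a normalized rate constant.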
Rango dissoc inh – qHTS Assay for Inhibitors of RanGTP induced Rango (Ran-regulated importin-beta cargo) - Importin beta complex dissociation | Snurportin-1 (Homo sapiens) + GTP-binding nuclear protein Ran (Homo sapiens) + Importin … | Potency, µM (highest dose often 46.1 µM), for inactives: at the top dose activity change, negative = inhibition | Biochemical FRET Rango-importin beta, RanGTP-induced dissociation | hit rate 0.071% among 340,000; further: potency means the concentration at half of the fitted maximal effect; % of control where 0% means no effect; nearly all actives have a fitted effect of over 45% in size
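Rango (0.1 uM)–importin beta (0.25 uM) complex; RanGTP-RCC1 trigger; 45 min RT; CFP/YFP FRET read.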
* hit, by the source's call; ? = inconclusive; . = no result given. Unless noted, the call rests on the fitted dose curve.

[1] COc1ccc(CCNC(=O)c2ccc(NC(=O)CC3SC(N4CCCCC4)=NC3=O)cc2)cc1 (centres undefined)
[2] Cc1cccc(NCCC(=O)c2ccc([N+](=O)[O-])cc2)c1C
[3] CC(SCc1nc2sc3c(c2c(=O)[nH]1)CCCC3)C(=O)Nc1ccccn1 (centres undefined)
[4] O=C(O)c1cc(S(=O)(=O)NCCCN2CCCC2=O)ccc1Cl
[5] O=C(OCc1c(-c2ccccc2)ncc2ccccc12)c1cccs1
[6] CC(C)(C)c1ccc(NC(=S)NCc2cccnc2)cc1
[7] CCC(C)c1ccc(NC(=S)NCc2cccnc2)cc1 (centres undefined)
[8] Cc1cc(C)cc(N(CC(=O)Nc2ccc(Br)cc2)S(=O)(=O)c2c(C)[nH]c(=O)[nH]c2=O)c1

compound no.	1	2	3	4	5	6	7	8
Rango complex inh	-3%	-2%	?	6%	3%	-2%	2%	-3%
hERG WT inh	-7	4	-5	-19	1	16	1	-24
KCNH2 3.1 inh	0	-83*	-36	.	-1	12	-94*	-109*
Rango dissoc inh	1%	-2%	-2%	-17%	14%	-4%	0%	-27%

[9] COc1ccc(C(=O)Nc2oc(-c3ccccc3)c(-c3ccccc3)c2C#N)cc1
[10] COc1ccc(-c2oc(NC(=O)c3ccc(C)cc3)c(C#N)c2-c2ccc(OC)cc2)cc1
[11] CC1CCCN(C(=O)CCNC(=O)Cn2cnc3ccccc3c2=O)C1 (centres undefined)
[12] CC1CCN(C(=O)CN2C(=O)C(=O)N(C(C)C)C2=O)c2ccccc2S1 (centres undefined)
[13] CCC1(CC)SCCNC1=O
[14] CCn1c(SCC(=O)NC(=O)c2ccccc2OC)nc2ccccc21
[15] O=C(CSc1ccccn1)N1CCN(C(=O)CSc2ccccn2)CC1
[16] Nc1ncnc2c1ncn2[C@@H]1O[C@H](CNCc2ccc(OCC(=O)Nc3nccs3)cc2)[C@@H](O)[C@H]1O

compound no.	9	10	11	12	13	14	15	16
Rango complex inh	-2%	1%	1%	-7%	-1%	0%	65µM*	-1%
hERG WT inh	0	1	-1	-5	-282*	2	-26	17
KCNH2 3.1 inh	-70*	-7	9	9	-1	8	-10	0
Rango dissoc inh	1%	-7%	26%	-11%	-7%	-1%	-4%	18%

[17] COc1cccc(NC(=O)c2cc3c(=O)n4ccccc4nc3n(CC(C)C)c2=N)c1
[18] Cc1cccc(NC(=O)c2cc3c(=O)n4ccccc4nc3n(CC(C)C)c2=N)c1
[19] COc1ccc(CNC(=O)c2cc3c(=O)n4ccccc4nc3n(Cc3cccnc3)c2=N)cc1
[20] Cc1nnc(N2CCCC(C(=O)NCc3ccc(OC(C)C)cc3)C2)c2nn(-c3ccccc3)c(C)c12 (centres undefined)
[21] CC(C)Cn1cnc2c(c(-c3ccccc3)c(-c3ccccc3)n2Cc2ccco2)c1=N
[22] N=c1c2c(-c3ccccc3)c(-c3ccccc3)n(Cc3ccco3)c2ncn1Cc1ccccc1
[23] N=c1c2c(-c3ccccc3)c(-c3ccccc3)n(Cc3ccco3)c2ncn1CCCN1CCOCC1
[24] N=c1c2c(-c3ccccc3)c(-c3ccccc3)n(Cc3ccco3)c2ncn1CCCn1ccnc1

compound no.	17	18	19	20	21	22	23	24
Rango complex inh	-1%	0%	?	1%	3%	2%	?	3%
hERG WT inh	-74*	-118*	14	-9	-74*	-18	-4	-17
KCNH2 3.1 inh	-93*	-98*	-40	-82*	-101*	-25	-78*	-71*
Rango dissoc inh	9%	-11%	?	1%	3%	-7%	?	1%

[25] c1ccc(-c2c(-c3ccccc3)n(Cc3ccco3)c3ncnc(NCCCn4ccnc4)c23)cc1
[26] CC(C)c1cccc(C(C)C)c1NC(=O)CN1CCCC1
[27] COc1ccc(N2CCN(C(=O)CN3c4cccc5cccc(c45)S3(=O)=O)CC2)cc1
[28] C=CCOc1ccc(/C=C(\C#N)C(=O)Nc2ccccn2)cc1
[29] CC1=C(C(=O)N2CCOCC2)CC(CC(=O)NC2CCCC2)C(=O)N1Cc1ccc(F)cc1 (centres undefined)
[30] C=CCn1c(SCC(=O)N(C(C)CC)C2CCS(=O)(=O)C2)nc2ccccc2c1=O (centres undefined)
[31] CCC(C)N(C(=O)CSc1nc(C)nc2ccccc12)C1CCS(=O)(=O)C1 (centres undefined)
[32] CN(C)C(=O)OCc1c(-c2ccccc2)ncc2ccccc12

compound no.	25	26	27	28	29	30	31	32
Rango complex inh	5%	-5%	4%	?	.	-1%	-1%	2%
hERG WT inh	13	-5	3	4	9	-33	-6	-13
KCNH2 3.1 inh	.	8	-7	18	-14	-88*	-15	30
Rango dissoc inh	1%	10%	1%	26µM*	.	10%	4%	-4%

[33] O=C1CCc2cc(S(=O)(=O)NC(C(=O)N3CCN(c4ccccn4)CC3)c3ccccc3)ccc2N1 (centres undefined)
[34] O=C1CCc2cc(S(=O)(=O)NC(C(=O)NCc3cccnc3)c3ccccc3)ccc2N1 (centres undefined)
[35] COc1ccc(S(=O)(=O)Nc2c(O)ccc3ccccc23)cc1OC
[36] N#Cc1cc(-c2ccc(Cl)cc2)cnc1Sc1ccccc1
[37] Cc1ccc(C(=O)Nc2cccc(C(=O)N/N=C/c3ccc(F)cc3)c2)cc1
[38] Cc1sc2nc(COC(=O)c3cccc(OC(F)F)c3)[nH]c(=O)c2c1C
[39] O=S(=O)(c1ccc(SCc2ccccc2F)nc1)N1CCCC1
[40] CCN1CCCC1CN(Cc1cc2ccc(C)cc2[nH]c1=O)C(=S)Nc1ccc(F)cc1 (centres undefined)

compound no.	33	34	35	36	37	38	39	40
Rango complex inh	-2%	-2%	-2%	-2%	-1%	-2%	4%	0%
hERG WT inh	-117*	-4	1	8	2	-92*	4	-71*
KCNH2 3.1 inh	-8	-10	17	-79*	4	-4	-1	-85*
Rango dissoc inh	0%	0%	18%	-3%	-1%	6%	0%	1%

[41] O=C(O)C1CCCN1C(=O)NC1CCCCC1 (centres undefined)
[42] O=C(Cc1ccccn1)c1ccc(F)cc1
[43] Cc1cccn2c(CNC3CCCc4ccccc43)c(C(=O)N3CCCCC3)nc12 (centres undefined)
[44] COC(=O)/C(=C\C(=O)c1ccc([N+](=O)[O-])cc1)Nc1ccc(OC)cc1
[45] COc1ccc(C(=O)/C=C/Nc2ccc([N+](=O)[O-])cc2)cc1
[46] CC(C)c1nnc(NC(=O)CC(C)c2ccccc2)s1 (centres undefined)
[47] CCC(CC)c1nnc(NC(=O)CC(C)c2ccccc2)s1 (centres undefined)
[48] CN(C(=O)COC(=O)CCc1c[nH]c2ccccc12)C(c1ccccc1)c1ccccc1

compound no.	41	42	43	44	45	46	47	48
Rango complex inh	-4%	4%	-2%	?	?	2%	3%	0%
hERG WT inh	-13	-12	-3	-6	-23	-14	-5	-5
KCNH2 3.1 inh	-5	-22	-182*	-77*	-3	-13	-72*	-80*
Rango dissoc inh	-4%	3%	0%	-5%	?	4%	-15%	4%

Random excerpt: four records from the list, in no set order.
[44] COC(=O)/C(=C\C(=O)c1ccc([N+](=O)[O-])cc1)Nc1ccc(OC)cc1
[46] CC(C)c1nnc(NC(=O)CC(C)c2ccccc2)s1 (centres undefined)
[42] O=C(Cc1ccccn1)c1ccc(F)cc1
[43] Cc1cccn2c(CNC3CCCc4ccccc43)c(C(=O)N3CCCCC3)nc12 (centres undefined)

compound no.	44	46	42	43
Rango complex inh	?	2%	4%	-2%
hERG WT inh	-6	-14	-12	-3
KCNH2 3.1 inh	-77*	-13	-22	-182*
Rango dissoc inh	-5%	4%	3%	0%
